This test concerns complex IV of the mitochondrial electron transport chain.

We go through one molecule from patent US11519913B2, “Metabolic disorder target” (University of Pittsburgh—Of the Commonwealth System of …, priority 2016, dated 2022).

Take `CN(C)C(=N)NC(=N)N` [metformin, N,N-Dimethylimidodicarbonimidic diamide]: the “Difference between 5 and 20 μM treatments, three proteins found at 5, 20 and 100 μM” value (5 μM vs 20 μM metformin) is recorded as “no significant differences”. Further, the “Fold changes of the 9 complex IV members found, against all other proteins” value (20 and 100 μM metformin) is on record as “lower negative fold changes than all other proteins”.
